Experimental data taken from publication PMC10200341 (Bioconjugate chemistry, 2022).

Biological target: A2AR(Nb6E) (Homo sapiens, UniProt P29274)
Assay: cAMP dose-response in HEK cells expressing A2AR
Format: cell-based
Conditions: read-out: EC50 (cAMP), cAMP-responsive luciferase, sigmoidal dose-response, variable slope

## CGS-1(NO2): conjugate of CGS21680 with crosslinking peptide prepared by copper-catalyzed click chemistry (QADQCAAELARQIS; K7A is printed; Cys at position 5 is inferred: the text gives position 5 or 14, and the matched control is named A5; A further change at position 11 cannot be ex)
  EC50: 40 to 60 nM
